Measured affinities in a library of Ab-14 heavy chain variants

Binding partner: SARS-CoV-2 spike HR2 peptide, sequence PDVDLGDISGINAS.

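In library AAYL49, one, two or three CDR residues were substituted; doubles and triples were drawn at random. The assay is AlphaSeq: two haploid yeast populations carry antibody and antigen on their surface. Pairs that bind mate more often; barcode pairs of the diploids are counted by sequencing. Each replicate has its own calibration line, from reference interactions of the BCL2 family. Each pool was mated in three replicate cultures.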

Ab-14 is the parent antibody, in scFv form: VH, then the linker GGGGSGGGGSGGGGS, then VL. The light chain is unchanged in all variants.
VH: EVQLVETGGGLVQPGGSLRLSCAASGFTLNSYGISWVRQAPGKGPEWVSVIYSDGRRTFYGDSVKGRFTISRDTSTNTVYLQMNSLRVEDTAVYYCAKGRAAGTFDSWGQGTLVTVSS
VL: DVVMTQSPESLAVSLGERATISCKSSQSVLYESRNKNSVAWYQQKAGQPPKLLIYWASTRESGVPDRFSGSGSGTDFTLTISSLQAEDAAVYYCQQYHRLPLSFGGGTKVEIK

Positions count from residue 1 of the parent VH; Y52T puts T in place of Y.
Affinities are written as log10 Kd with Kd in nM; a lower number is a better binder.
A mean of the replicates is given; it leaves out those without a signal.
A pair that was not seen in any replicate is written "not detected"; this usually means weak binding, but a binder can also be missed.
In this assay the parent's reference entry averaged 0.65; its copy inside this library read 4.11 (one replicate of three).

changes	mean log10 Kd (nM)	detected
Y52T+G61M+D62M	not detected	0 of 3
G26F+N30D+V64L	4.78	3 of 3
I34H+S53L+G55K	3.61	2 of 3
G61K+K65G+D106L	not detected	0 of 3
G99I+A101Y	3.17	2 of 3
G33V+V64P+A101E	not detected	0 of 3
T28A+Y32R+V50A	not detected	0 of 3
L29M+I34D+F105C	not detected	0 of 3
N30W+G61S+R100S	0.78	3 of 3
Y32C+D54C	not detected	0 of 3
T28V+S35K+R57P	not detected	0 of 3
I51Y+R100H+A101S	4.31	3 of 3
F59R+D62T+F105T	not detected	0 of 3
S35A+G55S+G103E	3.37	1 of 3
R56W+G103R+F105T	not detected	0 of 3
G61A+K65I+A102C	3.68	1 of 3
L29I+G61E+A102S	0.40	3 of 3
F59C+A101N+D106W	not detected	0 of 3
S35E+D54Y+T104Q	not detected	0 of 3
D62Q+G99S+S107G	not detected	0 of 3
G33L+F59P+R100E	not detected	0 of 3
T28F+G99P	not detected	0 of 3
T28H+I34F+T104M	2.25	3 of 3
N30A+V50T+S63K	not detected	0 of 3
N30Y+S31F+T104G	4.30	2 of 3
F27A+F59P+R100I	4.44	2 of 3
Y32F+D62I+G99N	3.76	2 of 3
L29N+G61N+G103W	4.65	1 of 3
T28K+G33H+S53A	4.06	2 of 3
T28K+L29S+T104W	4.36	2 of 3
G26V+G61V+S107M	1.69	3 of 3
V50G+T104H+S107Y	not detected	0 of 3
G26Q+S35G+V50C	3.32	1 of 3
Y52V+R57W+G99N	not detected	0 of 3
N30E+I34Q+F105Y	3.20	1 of 3
G99H+A101P	not detected	0 of 3
G33V+G55Q+D106E	3.43	2 of 3
V50R+R100D+S107D	not detected	0 of 3
Y32W+K65A+A102W	not detected	0 of 3
R56L+T104H+S107K	4.99	1 of 3
S31R+S63T+D106L	3.93	2 of 3
G33E+V50S+R56S	3.74	1 of 3
I34M+S35Q+R57L	not detected	0 of 3
L29F+G55A+D62A	4.76	1 of 3
R57A+D62S	not detected	0 of 3
A102N+T104P	3.43	3 of 3
F27W+R100M	3.66	3 of 3
Y32K+V50H+G99S	not detected	0 of 3
T28E+S63W+F105Q	not detected	0 of 3
F27L+R56H+Y60D	4.44	1 of 3
I51L+Y60P+G99T	5.48	3 of 3
G26R+S35I+A102S	not detected	0 of 3
S35A+I51V+S53H	not detected	0 of 3
L29C+I34Q+G103Y	3.47	1 of 3
G26W+R56M+A101Q	2.27	3 of 3
G26H+N30H+T104A	3.48	1 of 3
S31K+G55F+R100M	5.08	3 of 3
G33M+I51H+T58L	5.09	2 of 3
N30V+V50P+A102L	not detected	0 of 3

The opening 4 entries, copied out:

{"changes": "Y52T+G61M+D62M", "mean log10 Kd (nM)": "not detected", "detected": "0 of 3"}
{"changes": "G26F+N30D+V64L", "mean log10 Kd (nM)": "4.78", "detected": "3 of 3"}
{"changes": "I34H+S53L+G55K", "mean log10 Kd (nM)": "3.61", "detected": "2 of 3"}
{"changes": "G61K+K65G+D106L", "mean log10 Kd (nM)": "not detected", "detected": "0 of 3"}

Nonspecific signal, from three strains lacking the peptide, appeared in 15% of pairings of library AAYL49, centred on 4.06 (5% of these signals below 2.83); values are not corrected for it.

Values reported by Engelhart et al. 2022, doi:10.1038/s41597-022-01779-4 (FLAb copy).